The values below come from patent US20220017444A1, “BENZ[…] SURFACTANTS” (INDORAMA VENTURES OXIDES LLC, priority 2018, published 2022).

This data set is described as follows: Surface tensiometer characterization: critical micelle concentration and surface tension. As to conditions: surface tensiometer, FIG. 1. It is filed as physicochemical. The source says:
Dibenzhydryl resorcinol ethoxylates produced in Example 2 were characterized using a surface tensiometer to determine critical micelle concentration and surface tension.

Tribenzyhydryl phenol ethoxylate displayed a critical micelle concentration of 16.5 mg/L. In addition, the “surface properties (surface tension, critical micelle concentration)” value (result in words) is given as “typical for conventional nonionic surfactants”.
